The experiment has as its system Spleen cells from C57BL/6 (responder) and BALB/c (stimulator) mice. Nature of the experiment: Mixed lymphocyte reaction (MLR) assay. The class given is cell-based. The following applies: read-out: MLR nM; mouse spleen cells, five days, 3H-thymidine proliferation.

For “[(S)-2-Aminoethylthiomethyl-Sar]^3 cyclosporin A”, the IC50 amounted to 10400 nM. Then “[(S)-2-Dimethylaminoethylthiomethyl-Sar]^3 cyclosporin A”, with 4600 nM.

Values taken from patent US9493511B2, “Cyclosporin analogs” (Allergan, Inc., priority 2010, dated 2016).
